The entries are a selection whose mix differs from that of the whole data set. Calls of active or inactive are those of the source.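 Rule for the calls: active = compounds that quench the bead-bound fluorescent RNA probe, cutting fluorescence to under half of the solvent control; inactive = the rest.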

A short description of the assay: bead-bound FAM aptamer signal quenchers – biochemical, single point, cherry pick 1, flow cytometry, artefact control for GRK2 RNA aptamer inhibitor project, confirmation (AID 504580).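 Note: counterscreen run without GRK2 so only probe quenching by compound is measured.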 Conditions: Carboxyfluorescein RNA aptamer on beads, flow cytometry quenching; at 10 µM; hits give low values.
On to `CC(C)(C)OC(=O)N1CCC(N(C(=O)c2ccccc2)c2ccc(Cl)cc2)CC1`, for which the fluorescence response (% of DMSO) was inactive: 99.3%.

Source of the values: PubChem BioAssay AID504580 (NMMLSC, 2011).
